{
  "source": "paper PMC5028261",
  "about": "(Neurochemistry international, 2016)",
  "key": {"[1]": {"settings": "over 72 hours, HPLC"}, "[2]": {"tested_on": "RGCs and retinal endothelial cells", "settings": "ref Schlieve et al., 2006; cited from earlier work"}, "[3]": {"settings": "octanol/water, room temperature"}, "[4]": {"test": "Accelerated stability of solid compound by HPLC", "assay_type": "physicochemical", "settings": "20°C, extrapolation using the Arrhenius equation"}},
  "data": [
    {"substance": "bis(3-propionic acid methyl ester) phenylphosphine-borane complex [PB1]", "values": [
      {"measurement": "solubility in water", "setting": "[1]", "value": 237.8, "unit": "µM"},
      {"measurement": "no toxicity up to (concentration)", "setting": "[2]", "value": 1, "unit": "mM"},
      {"measurement": "log Poct/wat", "setting": "[3]", "value": 0.6},
      {"measurement": "calculated half-life", "setting": "[4]", "value": 2, "unit": "years"}
    ]}
  ]
}
